Data from US9751854B2 (Millennium Pharmaceuticals, Inc., priority 2014, dated 2017).

Protein sequences, listed by entry. Tags and fused reporters are not part of them.
UniProt Q8NEB9, whole entry: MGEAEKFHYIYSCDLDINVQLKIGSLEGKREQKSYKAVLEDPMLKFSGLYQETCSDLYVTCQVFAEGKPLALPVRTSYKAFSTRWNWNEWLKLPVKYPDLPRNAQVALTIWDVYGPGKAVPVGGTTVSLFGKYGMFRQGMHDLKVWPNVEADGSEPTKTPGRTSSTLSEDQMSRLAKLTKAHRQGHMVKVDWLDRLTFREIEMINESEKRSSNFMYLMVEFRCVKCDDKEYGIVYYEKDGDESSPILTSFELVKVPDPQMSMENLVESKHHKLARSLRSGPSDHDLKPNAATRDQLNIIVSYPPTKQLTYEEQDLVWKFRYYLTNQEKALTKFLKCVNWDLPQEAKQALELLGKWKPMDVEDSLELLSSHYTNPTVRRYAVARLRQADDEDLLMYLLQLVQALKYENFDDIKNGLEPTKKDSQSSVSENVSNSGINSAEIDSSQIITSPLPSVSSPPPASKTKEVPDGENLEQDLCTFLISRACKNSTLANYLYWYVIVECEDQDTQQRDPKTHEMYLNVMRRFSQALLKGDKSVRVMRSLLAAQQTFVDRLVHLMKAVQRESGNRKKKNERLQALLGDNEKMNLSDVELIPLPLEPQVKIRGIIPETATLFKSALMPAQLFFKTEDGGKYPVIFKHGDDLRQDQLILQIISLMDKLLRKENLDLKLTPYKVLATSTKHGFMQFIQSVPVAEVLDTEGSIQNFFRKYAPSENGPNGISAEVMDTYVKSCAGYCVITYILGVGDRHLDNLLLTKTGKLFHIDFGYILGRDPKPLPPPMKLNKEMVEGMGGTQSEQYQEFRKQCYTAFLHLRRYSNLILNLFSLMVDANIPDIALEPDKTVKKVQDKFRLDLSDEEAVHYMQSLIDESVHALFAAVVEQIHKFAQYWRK

Molecular target: human VPS34 (Homo sapiens (Human), UniProt Q8NEB9)
Test: Human VPS34 enzyme assay (Adapta TR-FRET ADP detection)
Format: biochemical

With `Nc1ncc(-c2ccnc(Nc3ccncn3)c2)cc1C(=O)NC12CC(C1)C2` [Compound I-298, 6-amino-N-(bicyclo[1.1.1]pent-1-yl)-2′-(pyrimidin-4-ylamino)-3,4′-bipyridine-5-carboxamide] as the molecule, how does the IC50 read?
The IC50 was less than 10 nM.
